Where two headings read alike, the source gives them in different places.
Test system: AML, ALL, and MM cell lines

Row | Structure (SMILES) | viability of AML, ALL, and MM cell lines | viability of AML, ALL, and MM cell lines, free or α-CD-encapsulated | viability of AML, ALL, and MM cell lines (MTT assay and flow cytometry, 0-100 µM, 18 h, HL60, KG1a, U937, MV-4-11, TMLCL, Jurkat, MM1.S, OPM-2, U266, compared to untreated control cells)
1 | CCOP(=O)(OCC)OCCCN=C=S [SFN-10, Diethyl (3-isothiocyanatopropyl) phosphate] | significantly reduced the viability | reduced the viability | –
2 | CCOP(=O)(CCCCN=C=S)OCC [SFN-14, Diethyl (4-isothiocyanatobutyl)phosphonate] | significantly reduced the viability | – | –
3 | C[S+]([O-])CCCCN=C=S (stereo not shown) [SFN-1, sulforaphane, reference compound] | – | – | significantly reduced the viability
4 | CCOP(=O)(NCCOCCOCCOCCN=C=S)OCC [SFN-4, Diethyl (11-isothiocyanato-3,6,9-trioxaundecan-1-yl)phosphoramidate] | significantly reduced the viability | – | –
5 | CC(C)OP(=O)(OCCCN=C=S)OC(C)C [SFN-15, Diisopropyl (3-isothiocyanatopropyl) phosphate] | significantly reduced the viability | reduced the viability | –

— patent EP4549446A1 (priority 2023, dated 2025)
